Results on one substance are retold here after patent US10947243B2, “Heteroaryl SYK inhibitors” (Boehringer Ingelheim International GmbH, priority 2014, dated 2021).

The target in this test is Recombinant human Syk (amino acids 342-635) (Homo sapiens (Human), UniProt P43405). The experiment in a line: Syk Kinase Test (Kinase Glo luminescence). Type of test: biochemical. Conditions: read-out: SYK-inhibiton IC50-value. As to the method: The output file of the reader is a csv file that contains the well number and measured relative light units (RLU). For data evaluation and calculation, the measurement of the negative control was set as 100% ctrl and the measurement of the positive control was set as 0% ctrl. Based on this values the % value for the measurement of each substance concentration was calculated using an Assay Explorer software (Accelrys). Normally, the % ctrl values calculated are between 0% and 100% values but may also occur outside these limits in individual cases based on variability or compound characteristics. The IC50 values were calculated from the % ctrl values using Assay Explorer software. Calculation: [y=(a−d)/(1+(x/c)^b)+d] a=low value, d=high value; x=conc M; c=IC50 M; b=hill; y=% ctrl.
On the technique in general: Kinase-Glo reads ATP consumption through a luciferase reaction.

Regarding “(4R)-4-[(1R)-1-[6-[1-(Difluoromethyl)imidazol-4-yl]-2-methyl-pyrazolo[4,3-c]pyridin-4-yl]oxyethyl]pyrrolidin-2-one [Example 83]”, the 50% inhibitory concentration (IC50) is 732 nM.

What is called IC50 is the midpoint of a concentration-inhibition curve.
